# Measured values from PubChem BioAssay AID717 (Columbia University Molecular Screening Center, 2007).
# Chains of the proteins cited; added tags and fusions are not shown.
# UniProt P34913, whole entry: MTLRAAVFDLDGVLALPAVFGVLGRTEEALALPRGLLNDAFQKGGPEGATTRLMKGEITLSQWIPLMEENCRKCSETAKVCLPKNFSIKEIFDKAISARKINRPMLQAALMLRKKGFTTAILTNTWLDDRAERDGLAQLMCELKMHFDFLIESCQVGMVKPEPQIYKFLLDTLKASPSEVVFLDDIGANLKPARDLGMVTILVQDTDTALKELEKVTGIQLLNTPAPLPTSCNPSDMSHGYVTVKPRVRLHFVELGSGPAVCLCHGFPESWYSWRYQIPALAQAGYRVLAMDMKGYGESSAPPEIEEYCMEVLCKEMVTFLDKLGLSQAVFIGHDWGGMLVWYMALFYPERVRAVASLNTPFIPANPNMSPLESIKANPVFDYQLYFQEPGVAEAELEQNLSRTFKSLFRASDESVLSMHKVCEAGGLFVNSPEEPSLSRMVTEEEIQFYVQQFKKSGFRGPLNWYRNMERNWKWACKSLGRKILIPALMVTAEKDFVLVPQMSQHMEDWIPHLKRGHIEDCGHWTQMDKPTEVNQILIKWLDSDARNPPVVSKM
# The entries are a selection whose mix differs from that of the whole data set. Some of these compounds have results that are not shown, active ones among them. Active and inactive are the calls of the source. No stated cut-off is given here; in the data, active means activation above about 37%; inactive means the rest.
# Molecular target: Bifunctional epoxide hydrolase 2 (Homo sapiens) (UniProt P34913)
# Experiment: soluble epoxide hydrolase activators, primary screen, biochemical, human sEH (AID 717)
# Details: purified human sEH enzymatic activity, activator screen; at 2 µM; active compounds read high
row,SMILES,activation
1,CN(C)c1cccc(C(=O)NCC2(N(C)C)CCCCC2)c1,inactive: 10.7%
2,O=C(OC1CN2CCC1CC2)C(CO)(c1ccccc1)c1ccccc1 (stereo not drawn),inactive: 0.4%
3,CC(C)N1C(=O)CC2(CCN(CCOC(=O)C(O)(c3ccccc3)c3ccccc3)CC2)C1=O,inactive: 6.3%
